# Apparent affinities of Ab-95 variants for a coronavirus HR2 peptide

Data: MIT Lincoln Laboratory AlphaSeq set, Engelhart et al. 2022, doi:10.1038/s41597-022-01779-4, as distributed in FLAb.

The target is the same throughout: PDVDLGDISGINAS, from the HR2 region of SARS-CoV-2 spike.

Parent scFv Ab-95: VH joined to VL by three GGGGS repeats. Changes lie in the light chain CDRs alone.
VH: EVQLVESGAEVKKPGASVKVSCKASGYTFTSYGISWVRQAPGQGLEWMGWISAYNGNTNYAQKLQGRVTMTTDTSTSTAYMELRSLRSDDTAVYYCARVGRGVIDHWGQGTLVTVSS
VL: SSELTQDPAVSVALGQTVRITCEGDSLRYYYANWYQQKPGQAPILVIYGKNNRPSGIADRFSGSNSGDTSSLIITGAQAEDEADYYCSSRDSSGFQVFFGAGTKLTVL

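The parent was found by panning a naive human phage display library on the peptide. Variants in AAYL52 differ from the parent at up to three CDR positions; double and triple changes were sampled at random. The assay is AlphaSeq: two haploid yeast populations carry antibody and antigen on their surface. Mating (16 h, 30 °C) was followed by selection of diploids and sequencing of their barcodes. Each replicate has its own calibration line, from reference interactions of the BCL2 family. There are three technical replicates.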

Sequences are complete VL domains. Numbers give log10(Kd / nM), so 0 is 1 nM and 3 is 1 µM. Smaller is tighter. Averages over replicates are reported, and they cover detected replicates only. "nd" marks a missing value. The strain was present, yet no cells mated with the target were sequenced in that replicate, which points to weak or no binding.

VL	log10 Kd (nM) by replicate	log10 Kd (nM), mean	control signals
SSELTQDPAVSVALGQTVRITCEGDSLRYYYANWYQQKPGQAPILVIYGKNNRPSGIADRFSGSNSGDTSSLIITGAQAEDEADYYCSSRDSSGCQWAFGAGTKLTVL	2.39 / 2.24 / 1.70	2.11	2/9 (4.80)
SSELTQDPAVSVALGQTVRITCEGDSLREYYANWYQQKPGQAPILVIYGPNNRPSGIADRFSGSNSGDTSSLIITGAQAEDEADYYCSSRDYSGFQVFFGAGTKLTVL	2.17 / 2.75 / 1.77	2.23	1/9 (5.28)
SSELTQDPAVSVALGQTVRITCEGDSLRYYYACWYQQKPGQAPILVIYGKNGRPSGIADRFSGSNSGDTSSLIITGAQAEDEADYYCSSRSSSGFQVFFGAGTKLTVL	4.52 / 3.61 / nd	4.06	4/9 (3.48)
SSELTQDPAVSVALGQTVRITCEGDSLRYYYANWYQQKPGQAPILVIYMKNNQPSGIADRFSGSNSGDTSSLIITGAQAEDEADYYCSSRDSSGFQPFFGAGTKLTVL	nd / nd / nd	nd	2/9 (4.13)
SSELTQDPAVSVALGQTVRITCEGDSLRYYYANWYQQKPGQAPILVIYGPNNRPSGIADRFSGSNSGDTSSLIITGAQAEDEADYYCSSRDLSGFQHFFGAGTKLTVL	nd / 3.41 / 3.81	3.61	2/9 (4.57)
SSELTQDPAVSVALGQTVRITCEGDSLRLYYANWYQQKPGQAPILVIYGKNNTPSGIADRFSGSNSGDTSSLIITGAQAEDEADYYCSSRDSSGFPVFFGAGTKLTVL	3.91 / nd / 3.13	3.52	4/9 (4.04)
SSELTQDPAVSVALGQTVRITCEGDRLRYYYANWYQQKPGQAPILVIYGQNNRPSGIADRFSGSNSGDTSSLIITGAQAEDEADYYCPSRDSSGFQVFFGAGTKLTVL	3.74 / 3.17 / 4.10	3.67	2/9 (3.39)
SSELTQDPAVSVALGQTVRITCEGDQLRYYYANWYQQKPGQAPILVIYGKNNRPAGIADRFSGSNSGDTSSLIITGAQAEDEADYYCESRDSSGFQVFFGAGTKLTVL	3.54 / 3.69 / nd	3.61	2/9 (4.24)
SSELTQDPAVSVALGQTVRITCRGDSLRYYYANWYQQKPGQAPILVIYGKVNRPSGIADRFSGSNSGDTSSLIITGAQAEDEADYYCSSRWSSGFQVFFGAGTKLTVL	3.05 / 3.24 / 3.02	3.10	0/9
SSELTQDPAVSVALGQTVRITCEGDSARYYYANWYQQKPGQAPILVIYGKNNRPSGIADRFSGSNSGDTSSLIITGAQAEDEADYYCSSRDSSIFQLFFGAGTKLTVL	nd / 4.39 / nd	4.39	1/9 (3.14)
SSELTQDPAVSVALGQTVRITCEGDSLRYYYNNWYQQKPGQAPILVIYGKNNRPSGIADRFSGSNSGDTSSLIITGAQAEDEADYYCSSRDSCGGQVFFGAGTKLTVL	2.35 / 2.06 / 1.60	2.00	4/9 (4.35)
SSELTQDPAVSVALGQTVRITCEGDSLRYYYANWYQQKPGQAPILVIYGDNNRESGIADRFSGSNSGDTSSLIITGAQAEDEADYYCSSRDSSGFQVFFGAGTKLTVL	2.18 / 1.97 / 1.84	2.00	1/9 (4.94)
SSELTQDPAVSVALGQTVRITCEGDSLRYLYENWYQQKPGQAPILVIYGKNCRPSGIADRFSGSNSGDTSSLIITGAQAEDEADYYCSSRDSSGFQVFFGAGTKLTVL	3.79 / nd / nd	3.79	4/9 (3.82)
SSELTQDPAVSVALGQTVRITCEGDSLRYYYARWYQQKPGQAPILVIYGKNNPPSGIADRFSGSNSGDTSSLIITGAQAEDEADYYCSSRASSGFQVFFGAGTKLTVL	3.89 / 3.22 / 2.83	3.32	6/9 (3.84)
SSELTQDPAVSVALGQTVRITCEGDSLRYYNANWYQQKPGQAPILVIYGKNCRPSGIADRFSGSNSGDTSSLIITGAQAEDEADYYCSSRDSSGEQVFFGAGTKLTVL	1.97 / 2.42 / 2.24	2.21	4/9 (3.81)
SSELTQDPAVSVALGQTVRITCEGDTLRYYYANWYQQKPGQAPILVIYGMNNPPSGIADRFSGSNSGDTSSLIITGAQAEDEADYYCSSRDSSGFQVFFGAGTKLTVL	5.10 / nd / nd	5.10	4/9 (3.90)
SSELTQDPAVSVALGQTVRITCEGWSLRYYYANWYQQKPGQAPILVIYGKNNRWSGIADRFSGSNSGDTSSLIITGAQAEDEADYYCSSRDSSGFFVFFGAGTKLTVL	3.55 / 3.44 / 3.32	3.44	3/9 (3.88)
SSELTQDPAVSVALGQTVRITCEGDSLRYYYANWYQQKPGQAPILVIYGKNNRPSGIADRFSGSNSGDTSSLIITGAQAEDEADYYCSSRYSSTFQVYFGAGTKLTVL	nd / 3.65 / nd	3.65	0/9
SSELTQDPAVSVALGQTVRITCEGDSMRYYYAVWYQQKPGQAPILVIYGKINRPSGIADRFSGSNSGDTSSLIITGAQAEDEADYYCSSRDSSGFQVFFGAGTKLTVL	1.78 / 2.05 / 1.89	1.91	3/9 (4.50)
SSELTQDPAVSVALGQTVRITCEGDFLRYYCANWYQQKPGQAPILVIYGKNNRPLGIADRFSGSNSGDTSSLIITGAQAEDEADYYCSSRDSSGFQVFFGAGTKLTVL	2.50 / 2.19 / 2.29	2.33	4/9 (3.94)
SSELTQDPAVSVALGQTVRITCEGDSLAYYYANWYQQKPGQAPILVIYGKNTRPSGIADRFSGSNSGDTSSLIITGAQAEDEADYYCSSRPSSGFQVFFGAGTKLTVL	nd / nd / nd	nd	1/9 (3.79)
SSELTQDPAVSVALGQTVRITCEGDSLRYYYANWYQQKPGQAPILVIYGKNNWPSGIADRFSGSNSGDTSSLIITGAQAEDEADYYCSSRDMSGFQFFFGAGTKLTVL	nd / 4.88 / nd	4.88	2/9 (3.98)

From the list, the first 2 with no signal in any replicate:

VL	log10 Kd (nM) by replicate	log10 Kd (nM), mean	control signals
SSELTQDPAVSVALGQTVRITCEGDSLRYYYANWYQQKPGQAPILVIYMKNNQPSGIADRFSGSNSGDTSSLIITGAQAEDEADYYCSSRDSSGFQPFFGAGTKLTVL	nd / nd / nd	nd	2/9 (4.13)
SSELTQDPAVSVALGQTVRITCEGDSLAYYYANWYQQKPGQAPILVIYGKNTRPSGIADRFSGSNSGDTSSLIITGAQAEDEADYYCSSRPSSGFQVFFGAGTKLTVL	nd / nd / nd	nd	1/9 (3.79)

Background: pairings of library AAYL52 with three empty control strains gave a value in 28% of cases (median 3.91, 5th percentile 2.90). Values in that range, when seen in few replicates, are hard to tell from nonspecific mating. For each scFv, signals with the empty controls are counted beside the result, with their mean in brackets.